This note sets out measurements from patent US11866518B2, “Bicyclic peptide ligands specific for TSLP” (BicycleTx Limited, priority 2020, dated 2024).

This test addresses T1, TSLP (Homo sapiens, UniProt Q969D9).
T1 sequence (Q969D9 29-159): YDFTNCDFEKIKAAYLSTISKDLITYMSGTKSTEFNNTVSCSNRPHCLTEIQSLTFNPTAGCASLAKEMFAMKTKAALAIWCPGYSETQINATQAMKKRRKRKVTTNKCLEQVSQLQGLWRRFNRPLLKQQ
The experiment in a line: Human TSLP Surface Plasmon Resonance (SPR) binding assay. The following applies: biotinylated human TSLP immobilized on streptavidin chip; 20° C.; steady-state or kinetic 1:1 fit; read-out: hTSLP SPR Kd. More on the design: The resulting construct spCD33-6×HN-TEV-hTSLP(29-159)-Avi; 6xHN tag with TEV site (N, cleaved yes); made in house; host or cells: Expi293F cells.

Turning to (SEQ ID NO: 144)-DPSSKQ [Example 226], the Kd stood at 76 nM. In the case of Ac-(SEQ ID NO: 66) [Example 86], the dissociation constant Kd was found to be 120 nM.

On to Ac-(SEQ ID NO: 22) [Example 24], for which the Kd was found to be 10 nM. Turning to `CC(C)C[C@@H]1NC(=O)[C@H](Cc2c[nH]c3ccccc23)NC(=O)[C@H](Cc2c[nH]c3ccccc23)NC(=O)[C@H](CCC(N)=O)NC(=O)[C@H](CCC(=O)O)NC(=O)[C@@H]2CSCCC(=O)N3CN(CN(C3)C(=O)CCSC[C@@H](C(=O)N[C@@H](C)C(N)=O)NC1=O)C(=O)CCSC[C@H](NC(=O)[C@H](C)NC(=O)CNC(=O)[C@@H](N)Cc1ccc(O)cc1)C(=O)N[C@@H](C(C)C)C(=O)N[C@@H](CC(=O)O)C(=O)N[C@@H](CC(C)C)C(=O)N[C@@H](CC(=O)O)C(=O)N1CCC[C@H]1C(=O)N[C@@H](Cc1c[nH]c3ccccc13)C(=O)N[C@@H]([C@@H](C)O)C(=O)N2` [Example 166, YGA-(SEQ ID NO: 124)-A], the Kd came to 120 nM. For Ac-(SEQ ID NO: 10) [Example 12], the Kd was 5.9 nM.

Consider Ac-(SEQ ID NO: 36) [Example 40], for which the Kd was determined as 22 nM. Turning to SEAQET-(SEQ ID NO: 144) [Example 214], the Kd was determined as 71 nM.

Take DDEIMQ-(SEQ ID NO: 38)-A [Example 64]: the Kd was determined as 69 nM. As to “A-(SEQ ID NO: 144)-YDNEMSA [Example 213]”, the dissociation constant Kd came to 120 nM. Consider Ac-(SEQ ID NO: 3) [Example 3], for which the Kd came to 2.5 nM. Turning to `CC[C@H](C)[C@@H]1NC(=O)[C@@H](NC(=O)[C@H](CC(N)=O)NC(=O)[C@H](CCCNC(=N)N)NC(=O)[C@@H](N)CCC(=O)O)CSCCC(=O)N2CN3CN(C2)C(=O)CCSC[C@H](NC(=O)[C@H](CC(=O)O)NC(=O)[C@H](Cc2ccc(O)cc2)NC(=O)[C@H](CCCCN)NC(=O)[C@H](Cc2c[nH]c4ccccc24)NC(=O)[C@H](CC(=O)O)NC(=O)[C@H](Cc2c[nH]c4ccccc24)NC1=O)C(=O)N[C@@H](Cc1c[nH]c2ccccc12)C(=O)N[C@@H](CC(C)C)C(=O)NCC(=O)N[C@H](C(=O)N[C@@H](C)C(N)=O)CSCCC3=O` [Example 225, ERN-(SEQ ID NO: 155)-A], the Kd is 71 nM. Regarding `CC(=O)N[C@H]1CSCCC(=O)N2CN3CN(C2)C(=O)CCSC[C@H](NC(=O)[C@H](CC(=O)O)NC(=O)[C@H](CCC(=O)O)NC(=O)[C@H](CC(C)C)NC(=O)[C@H](Cc2c[nH]c4ccccc24)NC(=O)[C@H](CCC(N)=O)NC1=O)C(=O)N[C@@H](Cc1c[nH]c2ccccc12)C(=O)N[C@@H](CCCNC(=N)N)C(=O)NCC(=O)N[C@@H](Cc1c[nH]c2ccccc12)C(=O)N[C@H](C(N)=O)CSCCC3=O` [Example 140, Ac-(SEQ ID NO: 99)], the Kd came out at 550 nM. Turning to R^7-(SEQ ID NO: 144) [Example 219], the Kd was found to be 550 nM. The result for Ac-(SEQ ID NO: 2) [Example 2] reads 2.4 nM. As for `CC(C)C[C@@H]1NC(=O)[C@H](Cc2c[nH]c3ccccc23)NC(=O)[C@H](CCC(N)=O)NC(=O)[C@@H](NC(=O)[C@H](CCCNC(=N)N)NC(=O)[C@@H]2CCCN2C(=O)[C@H](CCCCN)NC(=O)[C@@H]2CCCN2C(=O)[C@@H]2CCCN2C(=O)[C@@H](N)CC(=O)O)CSCCC(=O)N2CN3CN(C2)C(=O)CCSC[C@H](NC(=O)[C@H](CC(=O)O)NC(=O)[C@H](CCC(=O)O)NC1=O)C(=O)N[C@@H](Cc1c[nH]c2ccccc12)C(=O)N[C@@H](CCCNC(=N)N)C(=O)NCC(=O)N[C@@H](Cc1ccccc1)C(=O)N[C@H](C(=O)N[C@@H](C)C(N)=O)CSCCC3=O` [Example 87, DPPKPR-(SEQ ID NO: 38)-A], the Kd was determined as 120 nM. Regarding `CC(C)C[C@@H]1NC(=O)[C@H](Cc2c[nH]c3ccccc23)NC(=O)[C@H](CC(C)C)NC(=O)[C@@H](NC(=O)[C@@H](NC(=O)[C@@H]2CCCN2C(=O)[C@@H](N)CO)[C@@H](C)O)CSCCC(=O)N2CN3CN(C2)C(=O)CCSC[C@H](NC(=O)[C@H](CC(=O)O)NC(=O)[C@H](CC(=O)O)NC1=O)C(=O)N[C@@H](Cc1c[nH]c2ccccc12)C(=O)N[C@@H](CCCNC(=N)N)C(=O)NCC(=O)N[C@@H](Cc1ccccc1)C(=O)N[C@H](C(=O)N[C@@H](C)C(N)=O)CSCCC3=O` [Example 85, SPT-(SEQ ID NO: 65)-A], the Kd was found to be 120 nM. In the case of tertBuCO-(SEQ ID NO: 3) [Example 6], the Kd amounted to 2.8 nM. The value for R^1-(SEQ ID NO: 3) [Example 7] was 3.1 nM; that for Ac-(SEQ ID NO: 53) [Example 72] was 84 nM.

Consider Ac-(SEQ ID NO: 31) [Example 35], for which the Kd is 15 nM. On to Ac-(SEQ ID NO: 104) [Example 145], for which the Kd came to 900 nM. As to `CC(C)C[C@@H]1NC(=O)[C@H](Cc2c[nH]c3ccccc23)NC(=O)[C@H](Cc2c[nH]c3ccccc23)NC(=O)[C@H](CO)NC(=O)[C@H](CO)NC(=O)[C@@H]2CSCCC(=O)N3CN(CN(C3)C(=O)CCSC[C@H](NC(=O)[C@@H]3CCCN3C(=O)[C@H](Cc3ccc(O)cc3)NC(=O)[C@@H](NC(=O)[C@H](CC(=O)O)NC(=O)[C@@H](NC(=O)[C@@H](N)CCC(=O)O)C(C)C)[C@@H](C)O)C(=O)N[C@@H](CCCNC(=N)N)C(=O)N[C@@H](CC(=O)O)C(=O)N[C@@H](CC(C)C)C(=O)N[C@@H](CC(=O)O)C(=O)N3CCC[C@H]3C(=O)N[C@@H](Cc3c[nH]c4ccccc34)C(=O)N[C@@H]([C@@H](C)O)C(=O)N2)C(=O)CCSC[C@@H](C(=O)N[C@@H](C)C(N)=O)NC1=O` [Example 192, EVDTYP-(SEQ ID NO: 122)-A], the Kd was found to be 84 nM. For Ac-(SEQ ID NO: 11) [Example 13], the Kd was 6 nM. With “A-(SEQ ID NO: 122)-SSDTTDA [Example 176]”, the Kd was determined as 300 nM.

As for `CC(C)C[C@@H]1NC(=O)[C@H](Cc2c[nH]c3ccccc23)NC(=O)[C@@H]2CSCCC(=O)N3CN(CN(C3)C(=O)CCSC[C@H](N)C(=O)N[C@@H](CC(=O)O)C(=O)N[C@@H](Cc3c[nH]c4ccccc34)C(=O)N[C@@H](Cc3c[nH]cn3)C(=O)N[C@@H](Cc3c[nH]c4ccccc34)C(=O)N[C@@H](CCC(=O)O)C(=O)N[C@@H](Cc3ccc(O)cc3)C(=O)N[C@@H](CC(=O)O)C(=O)N2)C(=O)CCSC[C@@H](C(=O)N[C@@H](C)C(=O)N2CCC[C@H]2C(=O)N[C@@H](CC(=O)O)C(=O)N[C@@H](Cc2c[nH]cn2)C(=O)N[C@@H](CC(C)C)C(=O)N2CCC[C@H]2C(N)=O)NC(=O)[C@H](CO)NC1=O` [Example 224, (SEQ ID NO: 144)-APDHLP], the Kd was found to be 66 nM.

Turning to Ac-(SEQ ID NO: 59) [Example 78], the Kd stood at 94 nM. The result for Ac-(SEQ ID NO: 30) [Example 34] reads 15 nM. As to Ac-(SEQ ID NO: 7) [Example 9], the Kd amounted to 4.8 nM. On to Ac-(SEQ ID NO: 44) [Example 52], for which the Kd was 38 nM.
